The values that follow come from US20100311677A1, “Active Ingredient Combinations Having Insecticidal and Acaricidal Properties” (Bayer CropScience AG, priority 2007, published 2010).

For one test, the system named is Myzus persicae. The experiment in a line: Myzus persicae test (Example C), sprayed cabbage leaves. Type of test: in vivo. To be noted: 4 g/ha, alone.
Another test relates to Tetranychus urticae. As to the kind of experiment: Tetranychus urticae test (OP-resistant/spray treatment) (Example G), bean leaf disks. Type of test: in vivo. To be noted: active compound alone, 20 g/ha. The method, then:
Tetranychus urticae Test (OP-Resistant/Spray Treatment)
After the desired period of time, the activity in % is determined.

Consider triazophos [triazophos (115)], for which the “Kill in % after 1d” value in the test on Myzus persicae was determined as 30%. Moreover, the “Kill in % after 6 d” value in the test with Tetranychus urticae stood at 0%.
